The results in this text go back to ChEMBL document CHEMBL2202955, “Identification of Potent, Selective, Cell-Active Inhibitors of the Histone Lysine Methyltransferase EZH2” (ACS Med Chem Lett, 2012).

By UniProt entry, the sequences of proteins in these tests, tags left out.
UniProt Q15910, whole entry, looked up: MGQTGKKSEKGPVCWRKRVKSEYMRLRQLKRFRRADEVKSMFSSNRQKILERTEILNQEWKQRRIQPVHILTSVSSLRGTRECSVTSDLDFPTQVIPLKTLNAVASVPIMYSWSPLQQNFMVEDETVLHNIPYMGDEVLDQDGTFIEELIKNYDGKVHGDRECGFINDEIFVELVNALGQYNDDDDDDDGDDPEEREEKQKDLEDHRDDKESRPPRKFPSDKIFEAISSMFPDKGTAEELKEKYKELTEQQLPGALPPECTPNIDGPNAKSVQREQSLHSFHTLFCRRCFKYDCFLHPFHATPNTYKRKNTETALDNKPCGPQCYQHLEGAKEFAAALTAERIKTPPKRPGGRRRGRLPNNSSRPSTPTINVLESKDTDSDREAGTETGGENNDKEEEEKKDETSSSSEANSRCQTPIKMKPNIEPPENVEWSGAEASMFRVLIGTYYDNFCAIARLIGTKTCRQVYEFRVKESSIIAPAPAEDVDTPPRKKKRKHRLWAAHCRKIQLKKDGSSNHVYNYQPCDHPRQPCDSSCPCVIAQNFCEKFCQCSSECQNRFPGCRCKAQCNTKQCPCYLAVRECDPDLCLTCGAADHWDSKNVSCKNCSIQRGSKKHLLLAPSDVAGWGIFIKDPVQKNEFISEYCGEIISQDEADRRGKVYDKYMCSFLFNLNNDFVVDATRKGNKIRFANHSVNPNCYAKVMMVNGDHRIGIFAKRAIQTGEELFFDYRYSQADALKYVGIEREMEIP

What all share (format): cell-based
In experiment [1] the target is T1, Histone-lysine N-methyltransferase EZH2 (Homo sapiens, UniProt Q15910). Briefly: Inhibition of EZH2-mediated proliferation of human PC3 cells after 6 days by chemiluminescence analysis. The note with it: PC-3.
Experiment [2] has as its target T1, Histone-lysine N-methyltransferase EZH2. Description: Inhibition of EZH2-mediated proliferation of human DU145 cells after 6 days by chemiluminescence analysis. The note with it: DU-145.
For experiment [3] the target is unchanged. Briefly: Inhibition of EZH2-mediated proliferation of human ZR-75-1 cells after 6 days by chemiluminescence analysis.
Experiment [4] has the same target. Briefly: Inhibition of EZH2-mediated proliferation of human SKBR3 cells after 6 days by chemiluminescence analysis. The note with it: SK-BR-3.
The target is the same in experiment [5]. Briefly: Inhibition of EZH2-mediated proliferation of human […] cells after 6 days by chemiluminescence analysis.
Experiment [6] has the same target. Briefly: Inhibition of EZH2-mediated nuclear H3K27 methylation in human HCC1806 cells at >1000 nM after 72 hrs by immunofluorescence analysis. The method, boiled down: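 HCC1806 breast cancer cells were exposed to compound for 72 h. Nuclear H3K27me3 was quantified by an immunofluorescence imaging assay and normalized to total H3. […] Values are the mean of at least three independent replicates.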

The target is the same in experiment [7]. Briefly: Inhibition of EZH2-mediated nuclear H3K27 methylation in human HCC1806 cells after 72 hrs by immunofluorescence analysis. The method, boiled down: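 HCC1806 breast cancer cells were exposed to compound for 72 h. Nuclear H3K27me3 was quantified by an immunofluorescence imaging assay and normalized to total H3. Values are the mean of at least three independent replicates.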

Activity calls are given as the source filed them. The calls are words filed in the database; no cut-off is given here. Some results are limits rather than exact numbers.

One may read the inhibition as how much of the control response was suppressed. `CCCc1cc(C)[nH]c(=O)c1CNC(=O)c1cc(-c2ccnc(N3CCN(C)CC3)c2)cc2c1cnn2C(C)C`: the inhibition result in experiment [1], in experiment [2], in experiment [3], in experiment [4] and in experiment [5] was “Active” each time. The results for the inhibition in experiment [6] and in experiment [7] were > 90% and “Dose-dependent effect”, respectively.
